Amino acid sequences for entries named in this document (tags omitted). A change or cut given only in a name is not applied to a line headed by its entry.
UniProt O60755: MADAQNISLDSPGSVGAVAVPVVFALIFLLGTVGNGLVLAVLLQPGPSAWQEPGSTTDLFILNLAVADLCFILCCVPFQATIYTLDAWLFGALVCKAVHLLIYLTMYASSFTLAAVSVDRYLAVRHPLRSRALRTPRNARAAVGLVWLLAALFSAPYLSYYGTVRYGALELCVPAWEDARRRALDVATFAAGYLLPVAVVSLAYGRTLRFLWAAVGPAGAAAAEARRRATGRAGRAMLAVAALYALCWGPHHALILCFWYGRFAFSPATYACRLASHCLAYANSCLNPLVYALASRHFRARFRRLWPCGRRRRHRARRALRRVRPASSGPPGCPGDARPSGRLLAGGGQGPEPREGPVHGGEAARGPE

Only a part is listed here, and it is no random draw. Activity calls are given as the source filed them.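 The calls were made as follows: active = inhibition above the primary screen's cutoff, the mean inhibition of all screened compounds plus 3 SD (cut at about 13% in these data); inactive = the rest.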
What follows are compounds tested against Galanin receptor type 3 (Homo sapiens) (UniProt O60755) (assay: GalR3 antagonist hit confirmation, cell-based, fluorescence, triplicate (AID 652245;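 also: 0% = forskolin plus galanin and 100% = forskolin alone with DMSO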)). Conditions: HEK293 GalR3 CNG cAMP biosensor, membrane potential fluorescence; at 3 µM; hits give high values; challenged with forskolin and galanin at EC90; galR3 fused to GalR1 carboxy tail.
In the case of CCc1nc2c(n1)c1c(non1O)c1c2no[n+]1[O-], the inhibition is reported as active: 41.8%.
With Cc1ccc(NP(=O)(Oc2ccccc2)Oc2ccccc2)nc1 the inhibition was inactive: 0.61%.
For CC1(CBr)Cn2c(nc3ccccc3c2=O)S1 (stereo not drawn), the inhibition was inactive: 8.52%.

Reference: PubChem BioAssay AID652245 (The Scripps Research Institute Molecular Screening Center, 2013)
